For experiment [1], the target named is T1, Endothelin receptor type B (Sus scrofa, UniProt P35463).
T1 sequence (P35463 whole entry): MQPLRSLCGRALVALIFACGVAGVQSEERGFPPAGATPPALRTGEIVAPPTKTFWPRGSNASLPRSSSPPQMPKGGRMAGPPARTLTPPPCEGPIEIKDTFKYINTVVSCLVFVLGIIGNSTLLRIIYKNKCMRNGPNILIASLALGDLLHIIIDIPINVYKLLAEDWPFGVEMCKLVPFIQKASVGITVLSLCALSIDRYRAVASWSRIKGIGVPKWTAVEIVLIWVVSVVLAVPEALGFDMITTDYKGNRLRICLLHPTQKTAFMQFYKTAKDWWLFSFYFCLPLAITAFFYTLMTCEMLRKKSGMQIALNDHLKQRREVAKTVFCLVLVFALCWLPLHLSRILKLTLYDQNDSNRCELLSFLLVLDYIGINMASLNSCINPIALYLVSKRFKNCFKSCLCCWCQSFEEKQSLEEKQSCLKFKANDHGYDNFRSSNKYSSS
Description: Ability to bind with Endothelin B receptor competitively in the presence of (125 I) endothelin using receptor binding assay.

Protein sequences, listed by entry. Tags and fused reporters are not part of them.
UniProt Q29010, whole entry: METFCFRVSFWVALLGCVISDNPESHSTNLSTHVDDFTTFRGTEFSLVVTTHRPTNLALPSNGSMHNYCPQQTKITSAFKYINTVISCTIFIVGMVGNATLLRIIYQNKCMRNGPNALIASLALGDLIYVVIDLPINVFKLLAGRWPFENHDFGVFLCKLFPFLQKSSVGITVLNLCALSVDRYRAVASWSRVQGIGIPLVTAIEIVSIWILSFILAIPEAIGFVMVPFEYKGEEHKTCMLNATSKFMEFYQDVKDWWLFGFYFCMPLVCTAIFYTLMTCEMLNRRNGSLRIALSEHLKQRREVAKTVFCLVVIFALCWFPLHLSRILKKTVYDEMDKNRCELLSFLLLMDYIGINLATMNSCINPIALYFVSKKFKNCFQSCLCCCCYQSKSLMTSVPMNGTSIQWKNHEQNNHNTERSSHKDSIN

The target of experiment [2] is Endothelin-1 receptor (Sus scrofa, UniProt Q29010). Description: Ability to bind with Endothelin A receptor competitively in the presence of (125 I) endothelin using receptor binding assay.

Each structure is given as a SMILES string.

As for `O=C(O)C(Cc1ccc(O)cc1)N(Cc1ccccc1-c1ccccc1)C(=O)/C=C/c1ccc2c(c1)OCO2` (configuration not stated), the IC50 in experiment [1] and in experiment [2] was 8 µM each time.

These data come from ChEMBL document CHEMBL1134199, “Peptoids as endothelin receptor antagonists” (Bioorg Med Chem Lett, 2001).
